Test results from US20050250700A1 (BRACCO SUISSE, published 2005).
Where two headings read alike, the source gives them in different places.

Protein sequences, listed by entry. Tags and fused reporters are not part of them. Residues count along the entry.
UniProt P35968, 20-1356: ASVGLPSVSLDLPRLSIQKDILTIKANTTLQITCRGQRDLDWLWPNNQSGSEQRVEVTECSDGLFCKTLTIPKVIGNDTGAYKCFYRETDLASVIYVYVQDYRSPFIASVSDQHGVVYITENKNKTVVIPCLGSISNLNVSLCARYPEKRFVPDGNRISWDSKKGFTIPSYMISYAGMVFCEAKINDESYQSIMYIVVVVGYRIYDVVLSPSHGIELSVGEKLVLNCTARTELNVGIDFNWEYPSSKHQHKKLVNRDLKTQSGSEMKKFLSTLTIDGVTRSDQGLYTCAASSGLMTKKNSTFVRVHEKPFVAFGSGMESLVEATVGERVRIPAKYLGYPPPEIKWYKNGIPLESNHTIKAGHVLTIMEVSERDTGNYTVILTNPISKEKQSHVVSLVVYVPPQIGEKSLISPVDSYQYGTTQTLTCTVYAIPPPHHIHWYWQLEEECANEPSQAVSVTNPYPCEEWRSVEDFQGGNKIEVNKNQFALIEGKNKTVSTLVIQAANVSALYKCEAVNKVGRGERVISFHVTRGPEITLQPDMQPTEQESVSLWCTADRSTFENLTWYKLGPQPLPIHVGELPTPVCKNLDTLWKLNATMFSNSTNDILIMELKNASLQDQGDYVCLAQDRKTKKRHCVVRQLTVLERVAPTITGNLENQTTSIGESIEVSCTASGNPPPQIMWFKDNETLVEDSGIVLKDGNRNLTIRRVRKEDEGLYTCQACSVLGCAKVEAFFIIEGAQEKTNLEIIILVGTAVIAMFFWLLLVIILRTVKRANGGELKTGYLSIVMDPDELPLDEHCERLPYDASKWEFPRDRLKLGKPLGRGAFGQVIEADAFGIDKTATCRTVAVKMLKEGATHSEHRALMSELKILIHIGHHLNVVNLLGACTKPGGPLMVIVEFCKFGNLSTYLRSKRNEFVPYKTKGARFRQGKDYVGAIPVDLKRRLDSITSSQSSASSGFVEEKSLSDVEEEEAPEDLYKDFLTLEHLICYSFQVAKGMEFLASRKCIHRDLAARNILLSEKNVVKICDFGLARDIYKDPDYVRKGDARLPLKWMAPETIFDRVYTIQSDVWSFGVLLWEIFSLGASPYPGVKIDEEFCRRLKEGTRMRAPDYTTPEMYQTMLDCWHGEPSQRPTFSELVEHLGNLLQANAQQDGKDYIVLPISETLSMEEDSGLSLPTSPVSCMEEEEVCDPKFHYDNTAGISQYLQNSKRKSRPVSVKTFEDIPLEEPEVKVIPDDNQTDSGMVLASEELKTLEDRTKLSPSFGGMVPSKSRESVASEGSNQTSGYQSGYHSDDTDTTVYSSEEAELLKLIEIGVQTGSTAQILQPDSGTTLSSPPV

B1: tetrameric complex of biotinylated SEQ ID NO:356 (JJ spacer) with neutravidin-HRP (other)
peptide: AQDWYYDEILSMADQLRHAFLSGGGGGK
modifications: N-acetyl; C-terminal Lys(Biotin-JJ)-NH2
notes: peptides held on neutravidin-HRP (Pierce 31001)
B2: biotinylated SEQ ID NO:338 (JJ spacer) complexed with neutravidin-HRP (other)
peptide: AGPTWCEDDWYYCWLFGTK
modifications: N-acetyl; disulfide; J (8-amino-3,6-dioxaoctanoyl) in the chain; C-terminal Lys(Biotin-JJ)-NH2
notes: peptides held on neutravidin-HRP

Assays:
[1] = target: T1, KDR (VEGFR-2), full-length receptor on cells (human, UniProt P35968 20-1356)
T1 construct: whole, on cells; the assay field tells which cells; also called KDR-expressing cells

[2] = target: T1, KDR (VEGFR-2), full-length receptor on …; assay: biotinylated peptide (JJ spacer) in the neutravidin-HRP assay on KDR-expressing cells

Kd [1] [nM]	Kd [2] [nM]	Binder
1.81	–	B1
–	6.94	VCWEDSWGGEVCFRYDPGGGK (other, N-acetyl; disulfide; C-terminal Lys(Biotin-JJ)-NH2, peptides held on neutravidin-HRP) [biotinylated SEQ ID NO:337 (JJ spacer) complexed with neutravidin-HRP]
–	3.02	B2
